# Values quoted from earlier work, collected in patent publication US20040132819A1, “Appetite control method” (priority 2002, published 2004).
# Chains of the proteins cited; added tags and fusions are not shown.
# UniProt P47746, whole entry: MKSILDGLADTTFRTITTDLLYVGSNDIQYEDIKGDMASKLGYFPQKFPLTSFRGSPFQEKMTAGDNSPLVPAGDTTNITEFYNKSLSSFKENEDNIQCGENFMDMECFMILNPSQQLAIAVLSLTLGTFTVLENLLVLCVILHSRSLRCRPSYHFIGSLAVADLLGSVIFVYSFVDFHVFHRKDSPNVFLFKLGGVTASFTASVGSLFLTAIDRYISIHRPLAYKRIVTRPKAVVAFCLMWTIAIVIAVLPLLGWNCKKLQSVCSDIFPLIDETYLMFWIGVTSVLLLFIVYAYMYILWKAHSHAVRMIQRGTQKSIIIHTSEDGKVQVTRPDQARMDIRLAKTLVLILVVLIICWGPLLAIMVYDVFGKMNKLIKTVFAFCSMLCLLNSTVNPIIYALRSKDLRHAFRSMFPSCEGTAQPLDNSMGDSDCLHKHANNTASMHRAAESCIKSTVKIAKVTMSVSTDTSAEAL
# Target: CB1 receptor (Mus musculus, UniProt P47746)
# Conditions: co-administered with SR141716A, through day 8; cited from earlier work
structure (smiles),measurement,value
"CCCCCc1cc(O)c2c(c1)OC(C)(C)[C@@H]1CCC(C)=C[C@@H]21 [Δ^9-THC, Δ^9-tetrahydrocannabinol]",weight gain on co-administration with the antagonist,slight increases in weight gain
